The results in this text go back to PMC6874530, “Structural analysis identifies an escape route from the adverse lipogenic effects of liver X receptor ligands” (Communications Biology, 2019).

Amino acid sequences for entries named in this document (tags omitted). Residues count along the entry.
UniProt Q13133, 200-447 limits assumed: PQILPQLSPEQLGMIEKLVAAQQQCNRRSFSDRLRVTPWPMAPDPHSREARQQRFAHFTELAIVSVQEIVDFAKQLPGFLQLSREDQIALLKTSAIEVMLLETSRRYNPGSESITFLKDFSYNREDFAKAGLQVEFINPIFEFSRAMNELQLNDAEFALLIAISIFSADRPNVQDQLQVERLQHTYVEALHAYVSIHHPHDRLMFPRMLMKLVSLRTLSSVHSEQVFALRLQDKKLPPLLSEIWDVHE
UniProt Q13133, 209-447 limits assumed: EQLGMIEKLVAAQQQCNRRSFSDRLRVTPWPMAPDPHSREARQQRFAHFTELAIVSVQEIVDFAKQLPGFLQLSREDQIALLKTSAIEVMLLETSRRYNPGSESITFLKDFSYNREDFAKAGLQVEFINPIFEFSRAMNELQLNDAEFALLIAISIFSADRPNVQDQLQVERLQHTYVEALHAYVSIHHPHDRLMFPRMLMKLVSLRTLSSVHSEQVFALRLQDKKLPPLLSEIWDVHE
UniProt P55055, 215-460 limits assumed: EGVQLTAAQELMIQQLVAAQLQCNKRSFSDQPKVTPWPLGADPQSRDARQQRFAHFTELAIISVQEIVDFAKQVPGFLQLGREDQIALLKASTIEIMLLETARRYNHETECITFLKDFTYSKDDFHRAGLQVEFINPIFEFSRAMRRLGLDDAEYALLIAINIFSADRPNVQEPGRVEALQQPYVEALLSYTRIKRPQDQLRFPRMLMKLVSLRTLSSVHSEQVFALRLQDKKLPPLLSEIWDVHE
UniProt P55055, 222-460 limits assumed: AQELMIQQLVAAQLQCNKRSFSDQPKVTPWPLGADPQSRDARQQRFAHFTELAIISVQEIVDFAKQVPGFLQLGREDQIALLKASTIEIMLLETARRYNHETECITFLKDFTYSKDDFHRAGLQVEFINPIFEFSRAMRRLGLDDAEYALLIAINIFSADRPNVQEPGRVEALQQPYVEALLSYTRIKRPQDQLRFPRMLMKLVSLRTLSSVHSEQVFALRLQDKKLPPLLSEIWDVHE

For one test, the target named is LXRα (Homo sapiens, UniProt Q13133). In words: Gal4 one hybrid reporter gene (transactivation) assay in U2OS cells, LXRα. The test is classed as cell-based. The settings on record: Gal4-LXRα LBD, value (SD, n).
The next test has as its target LXRβ (Homo sapiens, UniProt P55055). In words: Gal4 one hybrid reporter gene (transactivation) assay in U2OS cells, LXRβ. The test is classed as cell-based. To be noted: Gal4-LXRβ LBD, value (SD, n).
Test [1] deals with T1, LXRα LBD (Homo sapiens, UniProt Q13133). In words: differential HDX-MS of LXRα LBD (apo vs ligand-bound). To be noted: after 600 s of deuterium exchange.
The target of test [2] is T1, LXRα LBD.
For another test, the target named is LXRβ LBD (Homo sapiens, UniProt P55055).
The subject of a further test is Abca1 mRNA in intestine. In words: intestinal Abca1 mRNA induction in C57BL/6 mice (Emax model).

In general, Ki refers to the equilibrium dissociation constant of an inhibitor or competing ligand from its target. Low readings indicate a stronger hold on the target, high ones a looser hold on the target. For `CC(C)(C)N1C(=O)C(Cc2ccccc2)=C(NCCc2ccc(S(N)(=O)=O)cc2)C1=O`, the “LXRα transactivation pEC50” value at LXRα is 6.33 (0.14, n = 3). In addition, at LXRβ, the “LXRβ transactivation pEC50” value is 6.55 (0.11, n = 4). For the same compound, the “protection of LXRα H3 from deuterium exchange” value on LXRα LBD [1] is given as “no effect”. The Ki worked out at 575 nM on LXRα LBD [2] and 81.3 nM on LXRβ LBD. Further, the “class of intestinal Abca1 induction” value in the test with Abca1 mRNA in intestine is reported as “low ABCA1 inducers”. In addition, in the test on Abca1 mRNA in intestine (mouse, in vivo), the “Abca1 mRNA induction in intestine Attributed class” value is “Low ABCA1 (compounds AZ5, AZ8, AZ9, and LXR-623 with weaker potencies were assigned to the second class (low ABCA1 inducers))”. In addition, in the test with Abca1 mRNA in intestine (oral gavage daily for 4 days, C57BL/6 mice, (% RSE)), the “Abca1 mRNA induction in intestine ED50” value is 32.2 (11) µmol kg^−1.
